Our source for the inhibition values is PubChem BioAssay AID2012 (Sanford-Burnham Center for Chemical Genomics, 2009).

The structures appear in SMILES notation. Only a part is listed here, and it is no random draw. Calls of active or inactive are those of the source. No rule for the calls is given here.

For this assay, the target named is Eukaryotic translation initiation factor 4H (Homo sapiens) (UniProt Q15056). Kind of assay: human eIF4H binding inhibitors, primary screen, translation initiation inhibitor project, biochemical, uHTS, fluorescence polarization (AID 2012). Conditions: eIF4H fluorescence polarization binding assay; at 35 µM; hits give high values. Background: Fluorescence polarisation rises when a labelled molecule tumbles more slowly, as on binding a larger partner.
As usually defined, the inhibition is the relative decrease from the control value, in per cent. In the case of `O=P1(Nc2ccccn2)COc2ccccc2OC1`, the inhibition was inactive: -7.7%.
